Test results: ChEMBL document CHEMBL3880421, “Indazole compounds and pharmaceutical compositions for inhibiting protein kinases, and methods for their use” (2003)

Target: T1, Serine/threonine-protein kinase Chk1 (Homo sapiens) (UniProt O14757)
T1 sequence (whole entry): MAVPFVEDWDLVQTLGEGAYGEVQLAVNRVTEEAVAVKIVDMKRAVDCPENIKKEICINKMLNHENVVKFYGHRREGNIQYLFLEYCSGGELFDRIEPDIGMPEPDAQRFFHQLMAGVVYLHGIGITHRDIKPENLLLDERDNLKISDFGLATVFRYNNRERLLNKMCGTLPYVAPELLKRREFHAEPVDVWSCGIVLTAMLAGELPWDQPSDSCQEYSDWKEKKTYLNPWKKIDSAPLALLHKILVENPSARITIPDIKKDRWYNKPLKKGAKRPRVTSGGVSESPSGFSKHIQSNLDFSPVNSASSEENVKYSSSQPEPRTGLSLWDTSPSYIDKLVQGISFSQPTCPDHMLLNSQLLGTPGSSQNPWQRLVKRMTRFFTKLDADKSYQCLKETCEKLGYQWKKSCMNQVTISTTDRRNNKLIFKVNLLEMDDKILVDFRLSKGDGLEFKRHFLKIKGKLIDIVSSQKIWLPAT
Assay: Inhibition of full length human C-terminal 6His-tagged CHK1 expressed in baculovirus/insect expression system assessed as reduction in NADH oxidation at 20 uM using Syntide2 as substrate by pyruvate kinase/lactate dehydrogenase coupled assay

O=C(Nc1ccncc1)c1ccc2c(-c3nc4ccccc4[nH]3)n[nH]c2c1
inhibition: 40%

O=C(Nc1cccnc1)c1ccc2c(-c3nc4ccccc4[nH]3)n[nH]c2c1
inhibition: 30.6%

CC(=O)NCCNC(=O)c1ccc2c(-c3nc4ccccc4[nH]3)n[nH]c2c1
inhibition: 20.2%
